In the library only some 3.7% were active in any assay of this set; here they are far more common.
Nrf2 block: blocks Nrf2 signaling | AID 504444 | 2.1% of 360,000 active | Potency, µM (doses to about 46 µM), without a hit: at the highest dose activity change, negative = inhibition, usual class: inhibitors | A549 ARE-Fluc reporter, luciferase luminescence, 18-24 h; also: potency is read from the fitted curve at half-maximal effect; % is scaled to controls: 0 for no effect and ±100 for the full control effect; nearly all actives have a fitted effect of over 60% in size
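In this cell-based qHTS, ARE-driven firefly luciferase in A549 cells reports Nrf2 activity; the luminescent signal after BugLite lysis is the measured value, with a prior CellTiter-Fluor read for cell health.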
IL2 activator: IL-2 activation | activation, % (series mostly up to about 46 µM) | 0.065% of 360,000 active | IL-2 activation reporter assay, cell-based qHTS; stimulated with anti-CD3/CD4/CD28 beads; in transgenic mouse T cells; in the data active = activation above about 50%; inconclusive = mostly about 30% to 49%; also: 0% is about no effect
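Quantitative HTS in unstimulated transgenic mouse T cells, with memory T cells as non-tolerant control and PMA/ionomycin as tolerance-bypass control. Compound pretreatment lasted 60 minutes before 18 h bead stimulation; EGFP/DsRed fluorescence read.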
ClpP mod: qHTS Assay for Activators of ClpP. Potency, µM (doses to about 57.5 µM), without a hit: top-dose activity change, negative = active. 1.9% of 340,000 active. ATP-dependent Clp protease proteolytic subunit (Bacillus subtilis (strain 168)), P80244. AID 651965, 2013. purified B. subtilis ClpP, FRET peptide cleavage, 20 min; active = well fitted falling curve with a large enough effect; inconclusive = small, poorly fitted or top-dose-only effect; inactive = no such curve, though single readings can be large or run the other way; also: potency is read from the fitted curve at half-maximal effect; the source files actives as falling curves though it sought activators and does not explain the sign; nearly all actives have a fitted effect of over 65% in size
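Purified B. subtilis ClpP, 10 microg/mL final in Tris/HCl pH8 with KCl, BSA, glycerol and Tween-20, cleaved an Abz/nitrotyrosine-quenched decapeptide. Fluorescence (ex 320, em 430) was read at 0 and 20 min at room temperature. Delta was normalized to 5.8 microM ADEP and DMSO/no-enzyme controls.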
A549 tox: counter-screen for Nrf2 inhibitors: cytotoxicity in A549 cells; A549 ARE-Fluc cells, CellTiter-Fluor viability, 18-24 h; Potency, µM (series often up to 46 µM), inactives show at the top dose activity change, negative = cytotoxicity, hits mostly inhibitors; 0.16% of 390,000 active; AID 504648; also: potency is read from the fitted curve at half-maximal effect; % is scaled to controls: 0 for no effect and ±100 for the full control effect
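Cytotoxicity counterscreen: CellTiter-Fluor fluorescence was measured in A549 ARE_Fluc cells after 18-24 h of compound exposure in a concentration series. The subsequent BugLite luminescent read reports ARE-luciferase activity.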
miR-21 FLuc: miR-21 reporter, rising signal | HeLa miR-21 FLuc reporter, luciferase, 48 h | Potency, µM (top dose mostly 38.3 µM), inactives show at the top dose reporter change, positive = more light | 340,000 tested, under 10 active | AID 2288; active = well fitted rising curve with a large enough effect; inconclusive = small, poorly fitted or top-dose-only effect; inactive = no such curve, though single readings can be large or run the other way;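 further: % of control where 0% means no effect; miR-21 action dims this reporter so a rising signal means less miR-21 action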
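HeLa cells endogenously expressing miR-21, stably carrying CMV-driven firefly luciferase with a downstream miR-21 binding site, 2000 cells/well. Titrations up to approximately 40 uM, 48 hours; luciferase luminescence read.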
Nrf2 activator: activates Nrf2 signaling | AREc32 ARE-luciferase reporter (MCF7-derived line), luminescence, 24 h | AID 624171 | 0.31% of 410,000 active | Potency, µM (doses to about 46.1 µM), inactives show at the top dose activation, actives largely listed as activators; also: potency is read from the fitted curve at half-maximal effect; % of control where 0% means no effect; nearly all actives have a fitted effect of over 65% in size
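ARE activation measured as luciferase luminescence (Steady-Glo, 30 min RT) in AREc32_Fluc cells after 24 hr compound exposure at 37 deg C, 5% CO2; cells seeded overnight at 1000/well in OPTI-MEM, 5% FBS.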
* marks the source's active call; other numbers are inactive results; ? = inconclusive; nt = no result; [ ] = dose if it differs, or a comment. Unless noted, calls follow the shape of the dose curve; as a rule, active = well fitted curve in the direction sought with a large enough effect; inconclusive = small, poorly fitted or top-dose-only effect, or another doubt; inactive = no such curve, though single readings can be large; an effect the other way counts as inactive or inconclusive.

SMILES	Nrf2 block	IL2 activator	ClpP mod	A549 tox	miR-21 FLuc	Nrf2 activator
COC(=O)c1cc2oc3ccccc3c2n1Cc1nc(-c2ccc(Cl)cc2)oc1C	6.9%	nt	-14.0%	1.1%	-2.8%	6.5%
C[N+](C)(C)CCC(=O)N1C/C(=C/c2ccccc2)C(=O)/C(=C\c2ccccc2)C1	8.6%	-7.0	1.6%	-2.5%	nt	?
CCOC(=O)N1C/C(=C\c2ccccc2)C(=O)/C(=C/c2ccccc2)C1	-3.9%	-4.2	0.3%	0.2%	24.7%	11.2µM*
CN(C)CCC(=O)N1C/C(=C/c2ccccc2)C(=O)/C(=C\c2ccccc2)C1	?	-5.4	35.5µM*	-11.3%	nt	-2.4%
CCOC(=O)C1=C(C)N=C2SCCC(=O)N2C1c1ccc(OCc2ccccc2)c(OC)c1 (stereo not drawn)	?	nt	-0.2%	-7.2%	-10.1%	5.0%
O=S(=O)(c1ccc2ccccc2c1)N1CCN(C(=S)Nc2ccccc2F)CC1	14.6µM*	-1.3	-1.2%	-1.0%	-1.8%	-0.1%
CCN(CC)C(=O)Cn1c(SCC(=O)Nc2ccc(C)c(C)c2)nc2ccccc21	nt	nt	2.7%	-10.5%	-7.5%	3.0%
Cc1sc2nc(-c3ccccn3)[nH]c(=O)c2c1-c1ccccc1	11.6µM*	1.6	3.8%	-9.4%	-19.4%	5.2%
Cc1cc(Br)ccc1NC(=O)CCNS(=O)(=O)c1cccc2nonc12	-4.3%[9.27 µM]	nt	1.5%	2.5%	4.9%	0.0%
CCOC(=O)c1cc(OC(=O)c2cc(Cl)ccc2OC)n(-c2ccccc2)n1	-3.7%	nt	-6.9%	-1.9%	-8.3%	-1.2%
O=c1cc(NCc2ccco2)c2ccccc2o1	-16.8%	0.2	-1.7%	-2.8%	-10.7%	12.6µM*
Cc1c(C(=O)NCc2ccco2)oc2ccc(Br)cc12	?	-3.9	-5.2%	0.0%	nt	?
Cc1c(C(=O)NCc2ccco2)oc2ccccc12	2.5%	-1.2	nt	4.9%	-21.7%	14.1µM*
CCOC(=O)c1noc2nc(C)n(CC(=O)NC(C)CC)c(=O)c12 (stereo not drawn)	nt	nt	-3.5%	1.4%	0.4%	0.0%
O=C1[C@H](Cc2ccccc2)NC/C=C\C[C@@H](c2ccc(Cl)cc2)N1Cc1ccccc1	nt	nt	1.7%	nt	nt	nt

Some of these compounds in order of their number in Nrf2 block, falling:
| SMILES | Nrf2 block |
| --- | --- |
| Cc1c(C(=O)NCc2ccco2)oc2ccccc12 | 2.5% |
| CCOC(=O)c1cc(OC(=O)c2cc(Cl)ccc2OC)n(-c2ccccc2)n1 | -3.7% |
| CCOC(=O)N1C/C(=C\c2ccccc2)C(=O)/C(=C/c2ccccc2)C1 | -3.9% |

Additional structures
SMILES	Nrf2 block	IL2 activator	ClpP mod	A549 tox	miR-21 FLuc	Nrf2 activator
CCC(C)c1ccccc1NC(=O)COC(=O)c1ccc2c(c1)S(=O)(=O)c1ccccc1C2=O (stereo not drawn)	0.8%	2.4	22.4µM*	-2.6%	-0.3%	-0.2%
COc1cccc2sc(NN)nc12	8.9%	-0.1	nt	-1.5%	1.9%	9.4%
COc1cccc2sc(Nc3nc4ccc(NC(C)=O)cc4s3)nc12	?	-0.9	1.12µM*	-2.2%	8.4%	19.4%
CCOC(=O)c1sc(Nc2nc3cc4c(cc3s2)OCO4)cc1C	7.3%	0.1	28.2µM*	-3.2%	-37.4%	14.4%
CCOC(=O)c1sc(Nc2nc3c(OC)cccc3s2)cc1C	?	0.5	25.1µM*	?	17.2%	4.9%
CC(=O)Nc1ccc2nc(NC(=O)COc3ccccc3C)sc2c1	8.3%	-0.1	-0.9%	-3.0%	-12.3%	-0.7%
Cc1ccc(-c2cn3c(n2)sc2cc(C(=O)NC4CCCCCC4)ccc23)c(C)c1	?	nt	?	-6.2%	8.9%	0.0%
CCc1ccc(OCc2ccccc2C(=O)Nc2ccc3nc(C)cc(N)c3c2)cc1	nt	nt	-2.5%	nt	nt	nt
Cc1ccc(NC(=O)Cn2c(=O)oc3cc(S(=O)(=O)NCc4ccccc4)ccc32)cc1	12.7%	nt	3.8%	-4.5%	-3.4%	4.6%
Cc1cc(Cl)ccc1OCC(=O)Nc1c(Cl)ccc2nsnc12	-18.3%	nt	-1.8%	9.6%	0.0%	5.9%
Cc1ccc(-n2nc3c4c(cccc4c2=O)-c2ccccc2-3)cc1	?	3.0	?	16.4µM*	-0.1%	5.0%
O=C(O)Cn1nc2c3c(cccc3c1=O)-c1ccccc1-2	-22.2%	-2.6	?	-1.3%	-2.0%	-0.3%
CC(=O)c1cccc(NC(=O)Cn2cc(C(=O)c3cccc(Cl)c3)c(=O)c3ccc(C)nc32)c1	-25.8%	nt	2.4%	-20.9%	5.6%	-0.6%
COc1ccc(/C=c2\[nH]c(=O)/c(=C/c3ccc(OC)c(OC)c3)[nH]c2=O)cc1OC	nt	nt	0.7%	nt	nt	nt
Cc1sc2ncnc(N3CCC(C(=O)NNC(=O)c4ccccc4Cl)CC3)c2c1C	16.4µM*	-4.2	-5.1%	-5.9%	29.0%	-1.1%
Cc1cc(Br)ccc1NC(=O)CN(C)C(=O)C1CCN(c2ncnc3sc(C)c(C)c23)CC1	?	-5.3	-3.0%	20.6µM*	nt	-0.3%
Cc1sc2ncnc(N3CCC(C(=O)NNC(=O)COc4ccccc4Cl)CC3)c2c1C	?	-5.4	0.8%	0.0%	nt	-1.1%
CCc1ccc2oc(C(=O)N(Cc3ccc(N(C)C)cc3)Cc3ccco3)c(C)c2c1	-22.6%	nt	?	12.5%	-4.7%	5.0%
CCc1ccc(C2CC(=O)Oc3c2c(=O)n(C)c2ccccc32)cc1 (stereo not drawn)	2.3%	nt	-12.8%	-2.5%	-1.4%	0.2%
S=C(NCC1CCCO1)Nc1cccc(Cl)c1 (stereo not drawn)	1.9%	-0.7	0.9%	-1.6%	-11.3%	0.8%
S=C(NCC1CCCO1)Nc1ccc(Nc2ccccc2)cc1 (stereo not drawn)	14.6µM*	1.0	nt	-21.9%	10.8%	2.8%
COCCCNC(=O)c1c[nH]c2ccc(S(=O)(=O)N3CCC4(CC3)OCCO4)cc2c1=O	3.8%	-2.3	nt	-1.4%	0.2%	0.0%
O=C(NCCN1CCOCC1)c1c[nH]c2ccc(S(=O)(=O)N3CCOCC3)cc2c1=O	0.7%	0.0	31.6µM*	7.4%	-1.7%	0.0%
CN(c1ccc(Br)cc1)S(=O)(=O)c1ccc2[nH]cc(C(=O)NCCN3CCOCC3)c(=O)c2c1	2.5%	-1.9	-17.6%	6.9%	2.5%	-0.8%
O=C(NCc1ccco1)c1cc(S(=O)(=O)N2CCOCC2)c(Cl)cc1Cl	18.4µM*	-4.6	-8.9%	?	-1.5%	0.0%
O=C(NCc1ccco1)c1c[nH]c2ccc(S(=O)(=O)N3CCOCC3)cc2c1=O	-14.0%	-0.8	31.6µM*	-8.4%	-1.6%	6.1%
CCCCCNC(=O)c1c[nH]c2ccc(S(=O)(=O)N3CCC4(CC3)OCCO4)cc2c1=O	4.9%	-4.4	15.8µM*	-4.6%	-3.5%	0.0%
CCc1nn2c(=O)cc(COC(=O)c3ccccc3)nc2s1	-29.0%	nt	2.1%	-0.8%	-52.3%	0.5%
CCN(C(=O)Cn1c(=O)oc2cc(S(=O)(=O)N3CCCCC3)ccc21)c1ccccc1	?	nt	-1.9%	1.1%	3.4%	0.4%

One compound at a time, as listed above.
CCc1nn2c(=O)cc(COC(=O)c3ccccc3)nc2s1 as listed: Nrf2 block = -29.0%; IL2 activator = nt; ClpP mod = 2.1%; A549 tox = -0.8%; miR-21 FLuc = -52.3%; Nrf2 activator = 0.5%
O=C(NCc1ccco1)c1cc(S(=O)(=O)N2CCOCC2)c(Cl)cc1Cl as listed: Nrf2 block = 18.4µM*; IL2 activator = -4.6; ClpP mod = -8.9%; A549 tox = ?; miR-21 FLuc = -1.5%; Nrf2 activator = 0.0%
